Laboratory results: patent US11912569B2, “Method for manufacturing chlorous acid water using raw material obtained by salt electrolysis” (HONBUSANKEI CO., LTD., priority 2016, dated 2024)

Assay: Oxidation capability: sodium hypochlorite converted concentration (DPD method)
Type: physicochemical
Description: The amount of chlorine of sodium hypochlorite is denoted not only as the available chlorine concentration derived by iodometry, but also as the amount of activated chlorine involved in the sterilizing effect contained in sodium hypochlorite, i.e., oxidation capability is denoted as free chlorine. It is well known that the free chlorine and available chlorine concentration of sodium hypochlorite show the same value. […] In this regard, it is necessary to find the oxidation capability of a chlorous acid aqueous solution by the same approach as the free chlorine of sodium hypochlorite. This can be quantified by the following method. […]
A spectrophotometer is used as a measuring apparatus. […] However, when a test is conducted, deviation between the measured wavelength and the wavelength of the reference value is to be ±0.5 nm or less. […] Each of the measured values is to be within a mean value ±0.2 nm or less. For transmittance or absorbance, a transmittance calibration optical filter is used to read out the transmittance at the wavelength of a reference value shown on the test certificate under test conditions in the test certificate appended to each filter. Further, when a test is conducted, deviation between the measured transmittance and the reference transmittance is to be within the upper limit value and the lower limit value of relative precision shown in the test certificate plus 1%. […]

sodium chlorite
oxidation capability: 0
